{"sequences": {"note": "Sequences of proteins named here, by UniProt entry; tags and fusion partners are left off.", "UniProt P11229, whole entry": "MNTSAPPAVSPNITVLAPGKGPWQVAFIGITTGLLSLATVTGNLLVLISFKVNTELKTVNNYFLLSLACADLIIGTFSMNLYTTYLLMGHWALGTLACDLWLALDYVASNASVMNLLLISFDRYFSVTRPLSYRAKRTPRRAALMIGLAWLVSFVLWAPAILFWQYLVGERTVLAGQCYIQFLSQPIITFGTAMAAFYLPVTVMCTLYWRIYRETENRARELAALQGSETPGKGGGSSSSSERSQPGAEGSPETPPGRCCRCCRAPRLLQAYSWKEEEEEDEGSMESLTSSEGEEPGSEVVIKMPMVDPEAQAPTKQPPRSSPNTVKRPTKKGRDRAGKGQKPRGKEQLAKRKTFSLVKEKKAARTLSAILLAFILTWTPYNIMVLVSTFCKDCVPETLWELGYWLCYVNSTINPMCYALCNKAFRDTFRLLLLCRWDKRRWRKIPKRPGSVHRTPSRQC"}, "source": "PubChem BioAssay AID588819", "about": "(The Scripps Research Institute Molecular Screening Center, 2011)", "note": "Only a part is listed here, and it is no random draw. Some salts or complexes appear as unconnected parts, following the source record. Calls of active or inactive are those of the source. No stated cut-off is given here; in the data, active means activation above about 19% (passing the limit was not always enough); inactive means the rest.", "data": [{"molecular_target": "Muscarinic acetylcholine receptor M1 (Homo sapiens) (UniProt P11229)", "experiment": "human M1 muscarinic receptor positive allosteric modulators, primary screen, CHO-K1 cells, Fluo-8 calcium fluorescence, 1536-well (AID 588819)", "details": "CHO-K1 hM1, Fluo-8 calcium fluorescence, ACh EC20; at 3 µM; hits give high values; 0% = ACh EC20, 100% = maximal ACh", "values": [{"smiles": "CP(=O)(Nc1ccc2c(c1)OCCO2)Oc1ccccc1", "note": "(stereo unspecified)", "activation": "inactive: -1.31%"}, {"smiles": "Cc1ccccc1NP(C)(=O)Nc1ccccc1C", "activation": "inactive: 7.1%"}, {"smiles": "COc1ccc(OP(C)(=O)Nc2cccc(Br)c2)cc1", "note": "(stereo unspecified)", "activation": "inactive: 2.59%"}, {"smiles": "CN(C)C1(CNC(=O)c2ccc(Cl)c(S(N)(=O)=O)c2)CCCCC1", "activation": "inactive: 3.72%"}, {"smiles": "CN(C)CCOC(=O)C(O)(c1ccccc1)C1CCCCC1", "note": "(stereo unspecified)", "activation": "inactive: -21.6%"}, {"smiles": "COc1ccc(NP(C)(=O)Oc2ccccc2OC)cc1", "note": "(stereo unspecified)", "activation": "inactive: -6.21%"}, {"smiles": "O=[N+]([O-])c1ccc(OP2(=O)COCCO2)cc1", "note": "(stereo unspecified)", "activation": "inactive: 13.2%"}, {"smiles": "Cc1cc(-c2cccc3ccccc23)c(C)cn1.O=[N+]([O-])c1cc([N+](=O)[O-])c(O)c([N+](=O)[O-])c1", "activation": "inactive: 6.77%"}, {"smiles": "O=[N+]([O-])c1cc([N+](=O)[O-])c(NCC2CCS(=O)(=O)C2)c([N+](=O)[O-])c1", "note": "(stereo unspecified)", "activation": "inactive: -12.5%"}, {"smiles": "Cc1c(C(c2ccc3c(c2)OCO3)c2c(C)n(C)n(-c3ccccc3)c2=O)c(=O)n(-c2ccccc2)n1C.O=[N+]([O-])c1cc([N+](=O)[O-])c(O)c([N+](=O)[O-])c1", "activation": "inactive: 4.88%"}, {"smiles": "CCOC(=O)c1ccc(NP(C)(=O)Oc2ccc(F)cc2)cc1", "note": "(stereo unspecified)", "activation": "inactive: 4.39%"}, {"smiles": "COc1ccc(OP(C)(=O)Nc2ccc(SC(F)(F)F)cc2)cc1", "note": "(stereo unspecified)", "activation": "inactive: 3.5%"}, {"smiles": "Cc1c([N+](=O)[O-])cc([N+](=O)[O-])c(Br)c1[N+](=O)[O-]", "activation": "inactive: 1.57%"}, {"smiles": "CCN(CC)CCCOC(=O)C(O)(c1ccccc1)C1CCCCC1", "note": "(stereo unspecified)", "activation": "inactive: -20.6%"}, {"smiles": "CP(=O)(Nc1ccccc1)Oc1ccc(F)cc1", "note": "(stereo unspecified)", "activation": "inactive: 6.74%"}, {"smiles": "CCCCCOc1ccc(NP(C)(=O)Oc2ccc(Cl)cc2Cl)cc1", "note": "(stereo unspecified)", "activation": "inactive: 4.92%"}, {"smiles": "O=[N+]([O-])c1cc([N+](=O)[O-])c(OC2CCCCC2O)c([N+](=O)[O-])c1", "note": "(stereo unspecified)", "activation": "inactive: 6.38%"}, {"smiles": "O=[N+]([O-])c1cc([N+](=O)[O-])c(Nc2ccc(Cl)cc2)c([N+](=O)[O-])c1", "activation": "inactive: -12.3%"}, {"smiles": "CP(=O)(Nc1ccccc1F)Oc1ccccc1", "note": "(stereo unspecified)", "activation": "inactive: 5.05%"}, {"smiles": "CC(C)c1ccc(OP(C)(=O)Nc2ccc(SC(F)(F)F)cc2)cc1", "note": "(stereo unspecified)", "activation": "inactive: -9%"}, {"smiles": "O=C(OC1CN2CCC1CC2)c1ccc([N+](=O)[O-])cc1", "note": "(stereo unspecified)", "activation": "inactive: 5.25%"}, {"smiles": "O=C(OCCN1CCN(CCOCc2ccccc2)CC1)C(O)(c1ccccc1)c1ccccc1", "activation": "inactive: -22.3%"}, {"smiles": "COc1ccc2c(c1O)-c1c(O)c(OC)cc3c1[C@H](C2)[N+](C)(C)CC3.O=[N+]([O-])c1cc([N+](=O)[O-])c([O-])c([N+](=O)[O-])c1[O-]", "activation": "inactive: 0.02%"}, {"smiles": "COc1ccccc1OP(C)(=O)Nc1cccc(Br)c1", "note": "(stereo unspecified)", "activation": "inactive: 8.75%"}, {"smiles": "COc1cc(C(=O)NCC2(N3CCOCC3)CCCCC2)cc(Cl)c1OC(C)C", "activation": "inactive: -12.3%"}, {"smiles": "CCOC(=O)c1ccc(NP(C)(=O)Oc2cc(C)cc(C)c2)cc1", "note": "(stereo unspecified)", "activation": "inactive: -4.6%"}, {"smiles": "Cc1cc(C)cc(OP(C)(=O)Nc2ccc(C)cc2C)c1", "note": "(stereo unspecified)", "activation": "inactive: 7.46%"}, {"smiles": "Cc1ccc(C)c(NP(C)(=O)Oc2ccccc2)c1", "note": "(stereo unspecified)", "activation": "inactive: 18.4%"}, {"smiles": "Cc1cc(C)cc(OP(C)(=O)Nc2ccccn2)c1", "note": "(stereo unspecified)", "activation": "inactive: 1.05%"}, {"smiles": "CP(=O)(Nc1cccc(Br)c1)Oc1ccccc1", "note": "(stereo unspecified)", "activation": "inactive: 5.55%"}, {"smiles": "O=C(O)c1cccc(Nc2c([N+](=O)[O-])cc([N+](=O)[O-])cc2[N+](=O)[O-])c1", "activation": "inactive: 7.09%"}, {"smiles": "CC1=NCCc2c1[nH]c1ccccc21.O=[N+]([O-])c1cc([N+](=O)[O-])c(O)c([N+](=O)[O-])c1", "activation": "inactive: 0%"}, {"smiles": "CCOC(=O)C(CC)C1=NC(C)(C)Cc2ccccc21.O=[N+]([O-])c1cc([N+](=O)[O-])c(O)c([N+](=O)[O-])c1", "note": "(stereo unspecified)", "activation": "inactive: 2.13%"}, {"smiles": "CN(C)C1(CNC(=O)c2ccc(S(C)(=O)=O)cc2)CCCCC1", "activation": "inactive: 6.73%"}, {"smiles": "CC1=C2N=C(C=C3N=C(C(C)=C4[N-][C@@](C)([C@@H]5N=C1[C@](C)(CCC(=O)NC[C@@H](C)OP(=O)([O-])O[C@H]1[C@@H](O)[C@@H](n6cnc7cc(C)c(C)cc76)O[C@@H]1CO)[C@H]5CC(N)=O)[C@@](C)(CC(N)=O)[C@@H]4CCC(N)=O)[C@@](C)(CC(N)=O)[C@@H]3CCC(N)=O)C(C)(C)[C@@H]2CCC(N)=O.[C-]#N.[Co+3]", "activation": "inactive: 3.98%"}, {"smiles": "O=[N+]([O-])c1cc([N+](=O)[O-])c(Nc2nnnn2CCO)c([N+](=O)[O-])c1", "activation": "inactive: 5.03%"}, {"smiles": "COc1ccccc1OP(C)(=O)Nc1c(C)cccc1C", "note": "(stereo unspecified)", "activation": "inactive: 7.91%"}, {"smiles": "CN1CCCCC1COC(=O)C1(O)c2ccccc2CCc2ccccc21", "note": "(stereo unspecified)", "activation": "inactive: -27.5%"}, {"smiles": "CCCOc1ccc(NP(C)(=O)Oc2ccc(Cl)cc2)cc1", "note": "(stereo unspecified)", "activation": "inactive: 10.9%"}, {"smiles": "CP(=O)(Nc1ccc(SC(F)(F)F)cc1)Oc1ccccc1", "note": "(stereo unspecified)", "activation": "inactive: -6.25%"}, {"smiles": "O=[N+]([O-])c1cc([N+](=O)[O-])c(-n2nnc3ccccc32)c([N+](=O)[O-])c1", "activation": "inactive: 7.31%"}, {"smiles": "CN(Cc1cccnc1)C(=O)COc1ccc(Cl)c(Cl)c1.O=[N+]([O-])c1cc([N+](=O)[O-])c(O)c([N+](=O)[O-])c1", "activation": "inactive: 16.4%"}, {"smiles": "O=[N+]([O-])c1cc([N+](=O)[O-])c(-c2cnn(-c3ccccc3)c2)c([N+](=O)[O-])c1", "activation": "inactive: -6.01%"}, {"smiles": "Cc1nc2ccc3ccccc3c2s1.O=[N+]([O-])c1cc([N+](=O)[O-])c(O)c([N+](=O)[O-])c1", "activation": "inactive: -4.95%"}, {"smiles": "CP(=O)(Oc1ccccc1)OC(c1ccccc1)C(F)(F)F", "note": "(stereo unspecified)", "activation": "inactive: -2.18%"}, {"smiles": "Cc1ccc(Nc2c([N+](=O)[O-])cc([N+](=O)[O-])cc2[N+](=O)[O-])cc1", "activation": "inactive: 6.14%"}, {"smiles": "Cc1cccc(C)c1OP(C)(=O)Nc1ccc(SC(F)(F)F)cc1", "note": "(stereo unspecified)", "activation": "inactive: 2.97%"}, {"smiles": "CP(=O)(Nc1ccc(SC(F)(F)F)cc1)Oc1ccc(Cl)cc1", "note": "(stereo unspecified)", "activation": "inactive: 6.1%"}, {"smiles": "Cc1cc(C)cc(OP(C)(=O)Nc2ccc(SC(F)(F)F)cc2)c1", "note": "(stereo unspecified)", "activation": "inactive: 0.61%"}, {"smiles": "CP(=O)(NC(=O)Nc1ccccc1)Oc1ccccc1", "note": "(stereo unspecified)", "activation": "inactive: 2.96%"}, {"smiles": "CCc1ccc(OP(C)(=O)N2CCN(c3ccc([N+](=O)[O-])cc3)CC2)cc1", "note": "(stereo unspecified)", "activation": "inactive: -12.8%"}, {"smiles": "CCOC(=O)c1ccc(NP(C)(=O)Oc2ccc(OC)cc2)cc1", "note": "(stereo unspecified)", "activation": "inactive: -0.61%"}, {"smiles": "O=[N+]([O-])c1cc([N+](=O)[O-])c(O)c([N+](=O)[O-])c1.c1ccc(Oc2ccncc2)cc1", "activation": "inactive: 2.77%"}, {"smiles": "CCOP(C)(=S)SCC(=O)NC(C)C(=O)O", "note": "(stereo unspecified)", "activation": "inactive: -0.23%"}, {"smiles": "CP(=O)(Nc1ccccn1)Oc1ccc(Cl)cc1", "note": "(stereo unspecified)", "activation": "inactive: 8.77%"}, {"smiles": "CCCCOc1ccc(C(=O)NCC2(N3CCCCC3)CCCCC2)cc1OC", "activation": "inactive: 13.2%"}, {"smiles": "CP(=S)(Nn1cnnc1)Oc1ccccc1", "note": "(stereo unspecified)", "activation": "inactive: 6.51%"}, {"smiles": "CP(=O)(Nc1ccccc1Br)Oc1ccccc1", "note": "(stereo unspecified)", "activation": "inactive: 6.56%"}, {"smiles": "COc1ccccc1OP(C)(=O)Nc1ccccc1", "note": "(stereo unspecified)", "activation": "inactive: 11.1%"}, {"smiles": "COc1cc(C(=O)NCC2(N3CCOCC3)CCCCC2)ccc1OCC(C)C", "activation": "inactive: 11.7%"}, {"smiles": "O=[N+]([O-])c1cc([N+](=O)[O-])c(Nc2cccnc2)c([N+](=O)[O-])c1", "activation": "inactive: -8.73%"}, {"smiles": "O=[N+]([O-])c1ccc2c(c1)C=Nc1ccccc1O2", "activation": "inactive: 5.49%"}, {"smiles": "Cc1cccc(C)c1OP(C)(N)=O", "note": "(stereo unspecified)", "activation": "inactive: -0.05%"}, {"smiles": "CC(C)(C)c1ccc(OP(C)(=O)Nc2ccc(SC(F)(F)F)cc2)cc1", "note": "(stereo unspecified)", "activation": "inactive: -10.9%"}, {"smiles": "Cc1ccc(NP(C)(=O)Oc2ccccc2)c(C)c1", "note": "(stereo unspecified)", "activation": "inactive: 10.1%"}, {"smiles": "COc1ccccc1OP(C)(=O)Nc1ccc(C)cc1", "note": "(stereo unspecified)", "activation": "inactive: 14%"}, {"smiles": "CCOC(=O)c1ccc(NP(C)(=O)Oc2ccccc2)cc1", "note": "(stereo unspecified)", "activation": "inactive: 11.7%"}, {"smiles": "Cc1cc(C)cc(OP(C)(N)=O)c1", "note": "(stereo unspecified)", "activation": "inactive: 1.59%"}, {"smiles": "COc1ccc(OP(C)(=O)Nc2cccc(F)c2)cc1", "note": "(stereo unspecified)", "activation": "inactive: 3.96%"}, {"smiles": "COc1ccccc1OP(C)(=O)Nc1cc(Cl)ccc1C", "note": "(stereo unspecified)", "activation": "inactive: -0.72%"}, {"smiles": "CCN(CC)CCCOC(=O)C(O)(c1ccccc1)c1ccccc1", "activation": "inactive: -22.2%"}]}]}
